Patent US20130323314A1, “Novel Nanoparticles of Lactoferrin Useful for Preparing a Pharmaceutical Composition Facilitating Easy Delivery of the Drug and a Process for Preparing the Same” (UNIVERSITY OF HYDERABAD, priority 2011, published 2013)
Where a name gives a salt, the structure may show the parent alone. Marks after values point to notes of the source that are not given here.

Test: Pharmacokinetics and tissue distribution after intravenous administration
Conditions: rat

COc1cccc2c1C(=O)c1c(O)c3c(c(O)c1C2=O)C[C@@](O)(C(=O)CO)C[C@@H]3O[C@H]1C[C@H](N)[C@H](O)[C@H](C)O1 [Doxo, Doxorubicin hydrochloride]
AUC (Blood): 206.564 (h) * (μg/μL)
AUC (Heart): 445.749 (h) * (μg/g)
AUC (Kidney): 3428 (h) * (μg/g)
AUC (Spleen): 445.3 (h) * (μg/g)
